Reference: article PMC9233935 (Journal of medicinal chemistry, 2022)

Experiment: physchem
Conditions: pH 7.4

| SMILES | logD at 3 h |
| --- | --- |
| C[C@@H]1CN2c3c(cc4c(N5CC[C@H](O)C5)noc4c3F)CC3(C(=O)NC(=O)NC3=O)[C@H]2[C@H](C)O1 [Compound 8, (2R,4S,4aS)-11-fluoro-8-((S)-3-hydroxypyrrolidin-1-yl)-2,4-dimethyl-1,2,4,4a-tetrahydro-2’H,6H-spiro[isoxazolo[4,5-g][1,4]oxazino[4,3-a]quinoline-5,5’-pyrimidine]-2’,4’,6’(1’H,3’H)-trione] | 1.4 |
| C[C@@H]1CN2c3c(cc4c(OC[C@@H]5CCC(=O)N5)noc4c3F)CC3(C(=O)NC(=O)NC3=O)[C@H]2[C@H](C)O1 [Compound 23, (2R,4S,4aS)-11-fluoro-2,4-dimethyl-8-(((S)-5-oxopyrrolidin-2-yl)methoxy)-1,2,4,4a-tetrahydro-2’H,6H-spiro[isoxazolo[4,5-g][1,4]oxazino[4,3-a]quinoline-5,5’-pyrimidine]-2’,4’,6’(1’H,3’H)-trione] | 1.4 |
